The assay addresses T1, GABAA receptor α2 β3 DSGEK γ2 (Homo sapiens, UniProt P18507+P28472+P47869, A273G/A274E/DEL271-271/R275K).
T1 construct: expressed in transfected cells; host or cells: CHO-K1 (ATCC No. CCL61)
Description: [^3H]-Muscimol binding, mutated receptor. The procedure:
Binding studies were performed using standard methods. Membranes were prepared from CHO-K1 cells expressing recombinant GABAAR subunits. The cells were washed in PBS (Life Technologies), trypsinized, washed twice in tris-citrate buffer (50 mM, pH 7.1) and centrifuged for 10 minutes at 5,000 g.
Membranes were resuspended in membrane wash buffer [20 mM KH2PO4K2HPO4, pH 7.5, 50 mM KCl, 0.025% (w/v) NaN3, and various protease inhibitors (1 mM EDTA, 2 mM benzamidine chloride, 0.1 mM benzethonium chloride, 50 U/ml bacitracin, 0.3 mM phenylmethylsulfonyl fluoride, 10 mg/I ovomucoid trypsin inhibitor, 10 mg/l soybean trypsin inhibitor)] and centrifuged for 30 minutes at 177,000 g and 4° C. The pellet was resuspended in binding assay buffer (20 mM KH2PO4/K2HPO4, pH 7.5 and 100 mM KCl) to a protein concentration of 1 mg/ml and homogenized just before use. Binding was performed with 1, 3, 10, 30, 100 or 300 nM of [^3H]-muscimol (20 Ci/mmol, Dupont-New England Nuclear) in triplicate in a final volume of 250 μl containing 200 μg of protein, and non-specific binding was determined in the presence of 1 mM GABA (Sigma). Samples were incubated at 4° C. for 30 minutes and labelled membranes were harvested on a Brandel cell harvester using GF/B filters (Whatman). The filters were washed with 3×4 ml binding assay buffer and the amount of radioactivity was determined by liquid scintillation counting. […]

Protein sequences, listed by entry. Tags and fused reporters are not part of them. Chains listed by the source or under a name are the forms on record and can include a tag or linker. Residues count along the entry.
UniProt P18507, 40-475, stated change not applied: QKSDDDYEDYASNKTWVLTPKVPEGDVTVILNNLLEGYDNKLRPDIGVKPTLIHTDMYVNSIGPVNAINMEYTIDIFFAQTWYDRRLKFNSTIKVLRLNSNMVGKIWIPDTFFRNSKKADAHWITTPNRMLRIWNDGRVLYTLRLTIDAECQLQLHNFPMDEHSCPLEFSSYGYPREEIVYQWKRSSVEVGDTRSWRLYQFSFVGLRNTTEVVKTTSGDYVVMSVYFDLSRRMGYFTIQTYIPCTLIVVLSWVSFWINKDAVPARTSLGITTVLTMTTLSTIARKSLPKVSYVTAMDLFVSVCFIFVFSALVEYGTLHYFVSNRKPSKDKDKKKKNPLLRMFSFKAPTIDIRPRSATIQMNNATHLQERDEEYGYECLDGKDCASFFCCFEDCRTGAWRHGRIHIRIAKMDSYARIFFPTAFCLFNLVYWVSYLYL
UniProt P28472, with tags, fused parts or gaps DEL271-271/A273G/A274E/R275K: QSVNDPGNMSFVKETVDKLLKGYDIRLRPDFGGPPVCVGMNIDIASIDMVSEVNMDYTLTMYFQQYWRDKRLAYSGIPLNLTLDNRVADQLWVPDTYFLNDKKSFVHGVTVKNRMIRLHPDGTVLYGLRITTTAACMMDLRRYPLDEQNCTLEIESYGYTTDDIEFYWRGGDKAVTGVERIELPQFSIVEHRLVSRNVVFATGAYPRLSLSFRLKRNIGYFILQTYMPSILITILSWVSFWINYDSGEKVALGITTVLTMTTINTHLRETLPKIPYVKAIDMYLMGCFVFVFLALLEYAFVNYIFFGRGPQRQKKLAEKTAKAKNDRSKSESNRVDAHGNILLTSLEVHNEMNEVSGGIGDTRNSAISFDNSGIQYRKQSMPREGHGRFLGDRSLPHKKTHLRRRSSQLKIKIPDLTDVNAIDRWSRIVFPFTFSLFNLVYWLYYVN
UniProt P47869, 29-451, stated change not applied: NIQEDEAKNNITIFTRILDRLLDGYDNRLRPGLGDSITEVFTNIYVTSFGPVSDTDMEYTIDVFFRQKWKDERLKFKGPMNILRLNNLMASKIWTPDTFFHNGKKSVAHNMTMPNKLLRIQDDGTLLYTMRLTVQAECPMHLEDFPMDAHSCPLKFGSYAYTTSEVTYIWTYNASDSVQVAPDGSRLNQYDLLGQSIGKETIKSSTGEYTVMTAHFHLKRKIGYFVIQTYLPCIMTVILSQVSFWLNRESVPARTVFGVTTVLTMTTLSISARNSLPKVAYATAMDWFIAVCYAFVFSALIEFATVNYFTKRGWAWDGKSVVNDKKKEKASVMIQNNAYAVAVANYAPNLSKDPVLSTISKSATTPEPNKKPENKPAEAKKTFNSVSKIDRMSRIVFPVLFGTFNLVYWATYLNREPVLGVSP

Each structure is given as a SMILES string.

In the case of `NCc1cc(=O)[nH]o1` [[^3H] Muscimol, Muscimol], the “[^3H]muscimol binding, mutant versus wild-type” value is on record as “No changes”.

Source of the values: patent publication US7282344B2, “Cation conducting GABAA receptors and their use” (Neurosearch A/S, priority 2001, dated 2007).
